Here are results for two compounds from US20250215030A1, “STAT MODULATORS AND USES THEREOF” (Recludix Pharma, Inc., priority 2022, published 2025).

By UniProt entry, the sequences of proteins in these tests, tags left out. Residues count along the entry.
UniProt P40763, 127-722 limits assumed: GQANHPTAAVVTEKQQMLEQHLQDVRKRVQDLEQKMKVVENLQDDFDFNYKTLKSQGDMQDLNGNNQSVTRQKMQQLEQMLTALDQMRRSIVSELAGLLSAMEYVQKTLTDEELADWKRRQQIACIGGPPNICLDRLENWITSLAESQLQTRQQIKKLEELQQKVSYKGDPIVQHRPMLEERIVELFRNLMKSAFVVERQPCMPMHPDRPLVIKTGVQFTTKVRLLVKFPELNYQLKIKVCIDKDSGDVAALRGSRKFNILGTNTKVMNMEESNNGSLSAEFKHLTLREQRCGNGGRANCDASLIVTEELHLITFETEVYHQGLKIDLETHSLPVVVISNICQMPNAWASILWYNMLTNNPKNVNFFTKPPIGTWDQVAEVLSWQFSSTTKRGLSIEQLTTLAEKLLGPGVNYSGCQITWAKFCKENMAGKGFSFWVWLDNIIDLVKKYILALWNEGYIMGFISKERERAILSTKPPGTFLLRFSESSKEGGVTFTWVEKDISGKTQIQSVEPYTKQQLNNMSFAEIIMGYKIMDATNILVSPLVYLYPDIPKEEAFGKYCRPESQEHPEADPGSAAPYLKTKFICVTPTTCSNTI
UniProt P42226, 123-658 limits assumed: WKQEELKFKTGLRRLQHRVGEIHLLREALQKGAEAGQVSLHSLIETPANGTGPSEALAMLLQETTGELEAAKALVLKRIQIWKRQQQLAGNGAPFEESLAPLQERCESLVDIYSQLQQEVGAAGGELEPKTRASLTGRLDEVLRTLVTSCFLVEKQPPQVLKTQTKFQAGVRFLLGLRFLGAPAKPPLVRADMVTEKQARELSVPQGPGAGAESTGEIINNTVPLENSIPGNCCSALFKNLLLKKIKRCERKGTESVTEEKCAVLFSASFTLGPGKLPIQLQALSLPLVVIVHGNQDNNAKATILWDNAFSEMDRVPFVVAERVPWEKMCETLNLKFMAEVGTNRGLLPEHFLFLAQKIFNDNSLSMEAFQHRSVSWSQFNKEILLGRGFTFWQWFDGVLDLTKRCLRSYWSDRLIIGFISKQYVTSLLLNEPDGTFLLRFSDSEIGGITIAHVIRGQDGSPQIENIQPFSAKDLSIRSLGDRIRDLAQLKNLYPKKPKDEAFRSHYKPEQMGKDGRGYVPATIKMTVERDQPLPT

The target in assay [1] is Recombinant STAT3 protein (STAT3(G127-I722)) (Homo sapiens, UniProt P40763). The assay can be described thus: STAT3 Fluorescence Polarization (FP) Assay. The conditions noted are these: read-out: STAT3 (FP assay IC50); STAT3(G127-I722) 25 nM, probe 5-FAM-GpYLPQTV-NH2 2 nM, 45-minute incubation. How it is done: STAT3 Fluorescence Polarization (FP) Assay
An FP assay was developed to determine IC50 values for test substances. Recombinant STAT3 protein (STAT3(G127-I722)) at 25 nM was combined with a fluorescently labeled, phosphotyrosine peptide probe (5-FAM-GpYLPQTV-NH2) at 2 nM in FP buffer (10 mM HEPES pH 7.4, 50 mM NaCl, 1 mM EDTA, 0.05% Tween 20, 2 mM DTT). 50 μL of STAT3-probe mixture was added to serial diluted compounds in black, 96-well plates (Greiner BioOne 655076) to a final concentration of 1% DMSO. Reaction components were mixed, and FP was measured after 45-minute incubation at room temperature using a Tecan Spark multimode plate reader. FP signal (mP) was plotted against the log concentration of the test substances and IC50 values were calculated by nonlinear regression analysis using GraphPad Prism software. For STAT3 FP assay, A=≤100 nM; B=>100-1000 nM; C=>1-10 μM; and D=>10 μM.

Assay [2] deals with Recombinant STAT6 protein (STAT6(W123-T658)) (Homo sapiens, UniProt P42226). Put plainly: STAT6 Fluorescence Polarization (FP) Assay. The following applies: read-out: STAT6 (FP assay IC50); STAT6(W123-T658) 250 nM, probe 5-FAM-ApYKPFQDLI-NH2 2 nM, 45-minute incubation. As to the method: STAT6 Fluorescence Polarization (FP) Assay
An FP assay was developed to determine IC50 values for test substances. Recombinant STAT6 protein (STAT6(W123-T658)) at 250 nM was combined with a fluorescently labeled, phosphotyrosine peptide probe (5-FAM-ApYKPFQDLI-NH2) at 2 nM in FP buffer (10 mM HEPES pH 7.4, 50 mM NaCl, 1 mM EDTA, 0.05% Tween 20, 2 mM DTT). 50 μL of STAT6-probe mixture was added to serial diluted compounds in black, 96-well plates (Greiner BioOne 655076) to a final concentration of 1% DMSO. Reaction components were mixed, and FP was measured after 45-minute incubation at room temperature using a Tecan Spark multimode plate reader. FP signal (mP) was plotted against the log concentration of the test substances and IC50 values were calculated by nonlinear regression analysis using GraphPad Prism software. For STAT6 FP assay, A=≤300 nM; B=>300-3000 nM; C=>3-30 μM; and D=>30 μM.
A general note: Polarisation of emitted light reports the rotation of a fluorescent probe.

A word on the IC50: it is the point on the concentration scale where inhibition reaches its midpoint. For `C[C@@]12C[C@H]3CC[C@@H](C(=O)N4CC(c5cccnc5)C4)N3C(=O)[C@@H](NC(=O)c3cc4cc(CP(=O)(O)O)ccc4s3)C[C@@H]1C2`, the IC50 in assay [1] is 100 to 1000 nM; in assay [2] it was above 30000 nM.
For `O=C(N[C@H]1C[C@H]2C[C@H]2C[C@H]2CC[C@@H](C(=O)N3CC(c4cccnc4)C3)N2C1=O)c1cc2cc(C(F)(F)P(=O)(O)O)ccc2s1`, the IC50 in assay [1] was below 100 nM; in assay [2] it was 3000 to 30000 nM.
